Patent US11116757B2 (priority 2015, dated 2021)
pIC50: −log10 of the molar value.

Protein sequences, listed by entry. Tags and fused reporters are not part of them. Residues count along the entry.
UniProt Q96GG9, 60-248 limits assumed: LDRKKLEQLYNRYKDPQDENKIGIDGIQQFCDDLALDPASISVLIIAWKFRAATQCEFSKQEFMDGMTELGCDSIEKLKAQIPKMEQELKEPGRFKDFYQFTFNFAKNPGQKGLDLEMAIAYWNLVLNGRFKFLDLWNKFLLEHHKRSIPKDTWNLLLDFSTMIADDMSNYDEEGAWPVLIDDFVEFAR

Biological target: DCN1-UBC12 interaction (Homo sapiens (Human), UniProt Q96GG9)
Format: binding
Details: read-out: TR-FRET IC50

| SMILES | pIC50 |
| --- | --- |
| CCCC(C)N1CCC(N(Cc2ccccc2)C(=O)Nc2ccc(C#N)c(C(F)(F)F)c2)CC1 (centres unmarked) [A47] | 6.59 |
| CCCC(C)N1CCC(N(Cc2ccccc2)C(=O)Nc2ccc3ncsc3c2)CC1 (centres unmarked) [A73] | 6.20 |
| CCCC(C)N1CCC(N(Cc2ccccc2)C(=O)Nc2ccc(C(C)C)cc2)CC1 (centres unmarked) [A74] | 6.18 |
| CCCC(C)N1CCC(N(Cc2ccccc2)C(=O)Nc2ccc(F)c(F)c2)CC1 (centres unmarked) [A80] | 6.09 |
| Cc1ccc(CN2CCC(NC(=O)Nc3cccc(C(F)(F)F)c3)CC2)cc1 [A179, 1-(1-(4-Methylbenzyl)Piperidin-4-yl)-3-(3-(Trifluoromethyl)Phenyl)Urea] | 4.78 |
